System: ALK phosphorylation in Cost cells
Assay: Western blot of ALK tyrosine phosphorylation
Format: cell-based, human
Settings: 24 or 48 h, P36 10 μM, PF 0.5 μM or both

## CC(Oc1cc(-c2cnn(C3CCNCC3)c2)cnc1N)c1c(Cl)ccc(F)c1Cl (stereo not shown) [PF, 3-[1-(2,6-dichloro-3-fluoro-phenyl)-ethoxy]-5-(1-piperidin-4-yl-1H-pyrazol-4-yl)-pyridin-2-ylamine]
  level of ALK tyrosine phosphorylation: decreased ALK phosphorylation
